From patent US9796741B2 (Achillion Pharmaceuticals, Inc., priority 2014, dated 2017)
Like-named read-outs stand apart in the source and are kept apart here.

Chains of the proteins cited; added tags and fusions are not shown. Residues count along the entry.
UniProt P00746, 26-253: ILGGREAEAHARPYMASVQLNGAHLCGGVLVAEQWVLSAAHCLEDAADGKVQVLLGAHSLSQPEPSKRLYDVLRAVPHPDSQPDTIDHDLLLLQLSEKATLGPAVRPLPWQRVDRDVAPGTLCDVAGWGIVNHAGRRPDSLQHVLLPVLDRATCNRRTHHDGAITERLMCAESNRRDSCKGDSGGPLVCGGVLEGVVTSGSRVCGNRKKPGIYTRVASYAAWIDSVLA

Target: Human factor D (Homo sapiens (Human), UniProt P00746)
Test: Human Factor D Assay
Assay type: biochemical
Procedure: Human factor D (purified from human serum, Complement Technology, Inc.) at 80 nM final concentration is incubated with test compound at various concentrations for 5 minutes at room temperature in 50 mM Tris, 1M NaCl, pH 7.5. A synthetic substrate Z-L-Lys-SBzl and DTNB (Ellman's reagent) are added to final concentrations of 100 μM each. The increase in color is recorded at OD405 nm in a microplate in kinetic mode over 30 minutes with 30 second time points in a spectrofluorimeter. IC50 values are calculated by non-linear regression from the percentage of inhibition of complement factor D activity as a function of test compound concentration.

[1] = human factor D 80 nM, substrate Z-L-Lys-SBzl, DTNB

NC(=O)c1nn(CC(=O)N2C[C@H](F)C[C@H]2C(=O)Nc2cncc(Cl)c2)c2ccc(-c3ccnnc3)cc12 [Compound 67, 1-(2-((2S,4R)-2-(5-chloropyridin-3-ylcarbamoyl)-4-fluoropyrrolidin-1-yl)-2-oxoethyl)-5-(pyridazin-4-yl)-1H-indazole-3-carboxamide]
IC50 [1]: 1000 to 10000 nM

NC(=O)c1nn(CC(=O)N2C[C@H](F)C[C@H]2C(=O)Nc2nc(-c3ccccc3Cl)ns2)c2ccc(-c3ccnnc3)cc12 [Compound 114, 1-(2-((2S,4R)-2-(3-(2-chlorophenyl)-1,2,4-thiadiazol-5-ylcarbamoyl)-4-fluoropyrrolidin-1-yl)-2-oxoethyl)-5-(pyridazin-4-yl)-1H-indazole-3-carboxamide]
IC50 [1]: 1000 to 10000 nM

CC(=O)c1nn(CC(=O)N2C[C@H](F)C[C@H]2C(=O)Nc2cccc(Br)n2)c2ccc(-c3cnc(C)nc3)cc12 [Compound 165, (2S,4R)-1-(2-(3-acetyl-5-(2-methylpyrimidin-5-yl)-1H-indazol-1-yl)acetyl)-N-(6-bromopyridin-2-yl)-4-fluoropyrrolidine-2-carboxamide]
IC50: < 1000 nM
